Laboratory results: ChEMBL document CHEMBL1123414, “Neurochemistry of aging. 1. Toxins for an animal model of Alzheimer's disease” (J Med Chem, 1986)

Amino acid sequences for entries named in this document (tags omitted).
UniProt P08483, whole entry: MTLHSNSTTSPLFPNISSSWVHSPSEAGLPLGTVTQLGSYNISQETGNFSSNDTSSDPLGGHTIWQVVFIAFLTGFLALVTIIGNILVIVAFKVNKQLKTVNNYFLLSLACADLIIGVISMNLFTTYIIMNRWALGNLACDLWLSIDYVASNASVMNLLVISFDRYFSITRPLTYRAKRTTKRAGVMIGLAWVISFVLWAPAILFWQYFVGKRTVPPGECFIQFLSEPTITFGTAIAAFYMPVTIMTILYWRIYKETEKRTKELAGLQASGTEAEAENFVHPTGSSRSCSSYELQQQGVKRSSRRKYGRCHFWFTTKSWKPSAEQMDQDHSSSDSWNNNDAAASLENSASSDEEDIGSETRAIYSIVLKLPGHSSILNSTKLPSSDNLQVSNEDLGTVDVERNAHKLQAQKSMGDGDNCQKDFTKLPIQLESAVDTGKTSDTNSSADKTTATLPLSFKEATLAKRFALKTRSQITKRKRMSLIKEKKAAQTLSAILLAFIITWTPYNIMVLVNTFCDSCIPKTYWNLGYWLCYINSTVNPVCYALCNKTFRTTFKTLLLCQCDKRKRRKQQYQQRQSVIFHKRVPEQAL

Biological target: Muscarinic acetylcholine receptor M3 (Rattus norvegicus) (UniProt P08483)
Assay: Compound was tested in vitro for its ability to displace [3H]-QNB from brain Muscarinic acetylcholine receptor

SMILES | Displacement [%]
CC(C)[N+]1(CCO)CC1 | 9
OCC[N+]1(C2CC2)CC1 | 90
